Assay outcomes as filed in PubChem.
Compounds with a hit are over-represented: about 1.5% of the library has one in this group of screens.
RAD52 anneal inh = RAD52 DNA annealing inhibitors, primary screen, biochemical, FRET, single point, set 2; DNA repair protein RAD52 homolog (Homo sapiens), P43351; recombinant RAD52 DNA annealing, FRET fluorescence; inhibition, % at 18.7 µM; actives 0.46% (n = 360,000);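 active means every replicate showing at least 50% inhibition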
Casp6 inh = human caspase-6 inhibitors, primary screen, biochemical, VEID-R110 fluorescence, single point, set 2; P55212; purified caspase-6, Z-VEID-R110 cleavage fluorescence; inhibition, % at 12.5 µM; actives 0.53% (n = 350,000);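 active means mean inhibition across replicates at least about 35%, with every replicate also reaching that limit, limit read from the data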;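 further: 0% = median of neutral control wells and 100% = no fluorescence left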
RAD54 inh = inhibitors of human RAD54 branch migration, primary screen, biochemical, fluorescence, single point; RAD54 Holliday junction branch migration, FAM/BHQ fluorescence; inhibition, % at 10.4 µM; actives 0.14% (n = 360,000); AID 602329, 2012;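 active means mean normalized replicate activity at least 40 and at least half of replicates scoring 40 or more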;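 further: 0% = median of neutral control wells and 100% = median of positive control wells; inhibitors cause a drop in the FAM fluorescence signal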
PglD DTNB = C. jejuni PglD acetyltransferase inhibitors, primary screen, biochemical, DTNB colorimetric, single point | actives 0.098% (n = 360,000) | inhibition, % at 12.5 µM | purified PglD enzyme, DTNB colorimetric CoA detection | UDP-N-acetylbacillosamine N-acetyltransferase PglD (Campylobacter jejuni); in the data active means inhibition above about 16%, passing the limit was not always enough
UUG fidelity = modulators of yeast start codon fidelity, primary screen, whole organism, S. cerevisiae, single point, plate reader | AID 602363, 2012 | actives 0.13% (n = 350,000) | activity score, % at 18.7 µM | S. cerevisiae UUG-firefly luciferase reporter, luminescence/redox ratio;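 active means replicate mean at a twofold rise or more, about +100% in these data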;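 further: firefly luciferase made from a UUG start codon reports start codon fidelity; reporter light over untreated wells divided by growth signal over untreated wells; some hits fall short of that in this replicate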
GSIS activator = GLuc luminescence reporter in INS-1E cells, primary screen for activators of glucose-dependent secretion of insulin | AID 743287, 2014 | actives 0.61% (n = 370,000) | INS-1E GLuc reporter insulin secretion, 2-3 h | activation, % at 16.6 µM;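 active means lowest replicate activation of at least 40%, so every replicate reaches that level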;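 further: 0% = median of neutral control wells and 100% = median of IBMX positive control wells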
An asterisk follows results filed as active; . = not tested or not shown.

No. | compound | RAD52 anneal inh | Casp6 inh | RAD54 inh | PglD DTNB | UUG fidelity | GSIS activator
1 | Nc1cccc2c1C(=O)N(Cc1cccc(Cl)c1)C2=O | -30 | 1 | . | . | . | -1
2 | COc1cccc(N/C=C/C(=O)c2ccc(Cl)cc2)c1 | -61 | -7 | -5 | -4 | -27 | 2
3 | COc1ccc(N/C=C/C(=O)c2ccc(Cl)cc2)cc1 | . | . | . | . | . | 112*
4 | Cc1cc(S(=O)(=O)N(Cc2ccccc2Cl)c2ccc3c(c2)CCC3)ccc1-n1cnnn1 | . | . | . | . | . | 0
5 | Cn1c(-c2ccsc2)c(-c2cccs2)c2cc(-c3ccc4cc[nH]c4c3)ccc21 | -17 | 1 | -21 | 3 | -23 | -8
6 | CCC(=O)N(C1=C(NC)C(=O)c2ccccc2C1=O)C(C)C | -4 | 72* | . | . | . | -9
7 | CCCC(=O)Nc1ccc2c(c1)C(=O)N(C)C[C@@H](OC)[C@@H](C)CN(CCC)[C@@H](C)CO2 | 4 | 0 | 1 | -1 | -2 | 6
8 | C[C@H](CO)N1C[C@H](C)[C@H](CN(C)C(=O)CN(C)C)Oc2ncc(C#C[C@@H](C)O)cc2C1=O | -9 | -2 | 2 | -1 | 6 | 6
9 | O=C(O)CCCC(=O)N1CCN(c2nc(-c3ccccc3)c3ccccc3n2)CC1 | 0 | 1 | 3 | 4 | -2 | 61*
10 | Cc1ccc2nc(N3CCN(C(=O)CCC(=O)O)CC3)nc(-c3ccccc3)c2c1 | -4 | 1 | -1 | 1 | -3 | 5
11 | CN(C)c1ccc(/C=C(\C#N)C(=O)Nc2nc3c(s2)CCN(Cc2ccccc2)C3)cc1 | . | . | -9 | 1 | -3 | .
12 | O=C(c1ccccc1)c1c2c(cc3sc4ccccc4[n+]13)-c1cccc3cccc-2c13 | . | . | 105* | -12 | 21 | -43
13 | Cc1ccc(C)c(OCC(=O)N/N=C/c2c(C)nn(-c3ccccc3)c2Cl)c1C | . | . | . | . | . | 297*
14 | CC(C)NC(=O)Nc1ccc2c(c1)C(=O)N([C@H](C)CO)C[C@H](C)[C@@H](CN(C)C(=O)Nc1ccc(C(F)(F)F)cc1)OCCCC[C@H](C)O2 | 2 | -2 | 1 | -4 | -10 | -10
15 | CCOc1ccc2ccccc2c1C(=O)N1CCN(c2ccccc2)CC1 | -4 | 3 | -8 | 1 | -7 | -20
16 | CC(C)(C)OC(=O)N1CCCN(C(=O)c2ccc(Cl)cc2)CC1 | -10 | 0 | -6 | -6 | -7 | 192*
17 | CC(C)(C)OC(=O)N1CCC(C(=O)Nc2ccc(C(=O)N3CCCC3)cc2)CC1 | -6 | 2 | -12 | 1 | 4 | 6
18 | CCOC(=O)C1C2C=CC3(CN(CCc4ccccc4)C(=O)C13)O2 (configuration not stated) | . | . | -9 | 5 | -6 | .
19 | CC1CCN(CCCNC(=O)COc2cc(=O)n(C)c3ccccc23)CC1 | -7 | 78* | 10 | -1 | -21 | .
20 | CC1CC(C)CN(CCCNC(=O)COc2cc(=O)n(C)c3ccccc23)C1 (configuration not stated) | . | . | 3 | 11 | -5 | .
21 | O=C(O)c1ccc(Cn2cc(/C=C\[N+](=O)[O-])c3ccccc32)o1 | -39 | 38* | 2 | -4 | 2 | -16
22 | NC(=S)NN=C1CCCCCCCCCC1 | -11 | 2 | -3 | -5 | -25 | 55*
23 | NC(=S)NN=C1CCC(C2CCCCC2)CC1 (configuration not stated) | 4 | 0 | 0 | -1 | -25 | 18
24 | COc1ccc(-c2ccc(SCC(=O)NCC3CCCO3)nn2)cc1OC (configuration not stated) | 7 | -2 | 0 | 1 | -15 | 75*
25 | O=C(CSc1nccc(=O)[nH]1)NCc1ccco1 | -25 | 42* | 7 | -1 | -16 | -3
26 | COc1ccc(-c2ccc(SCC(=O)NCc3ccco3)nn2)cc1OC | . | . | . | . | . | 62*
27 | COc1ccc(-c2ccc(SCC(=O)NC3CCCCC3)nn2)cc1OC | -13 | -1 | 9 | 4 | -2 | 105*

Some of the entries above in another layout.
Results follow in this order: RAD52 anneal inh | Casp6 inh | RAD54 inh | PglD DTNB | UUG fidelity | GSIS activator
18) CCOC(=O)C1C2C=CC3(CN(CCc4ccccc4)C(=O)C13)O2 (configuration not stated)
    . | . | -9 | 5 | -6 | .
19) CC1CCN(CCCNC(=O)COc2cc(=O)n(C)c3ccccc23)CC1
    -7 | 78* | 10 | -1 | -21 | .
20) CC1CC(C)CN(CCCNC(=O)COc2cc(=O)n(C)c3ccccc23)C1 (configuration not stated)
    . | . | 3 | 11 | -5 | .
